High-throughput results deposited in PubChem by Broad Institute.
Wnt act: Wnt/beta-catenin pathway activation; Wnt/beta-catenin reporter cell assay, activator, plate reader; activation, % at 9.35 µM; actives 1.2% (n = 300,000); AID 743398; in the data active = activation above about 30%, passing the limit was not always enough; inconclusive = no clear call, values can overlap the other calls;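 also: 0% = neutral control wells and 100% = positive control wells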
MITF TRPM1 HTS: MITF TRPM1 promoter activation in melanoma cells; activation, % at 12.5 µM; SK-MEL-5 TRPM1-promoter luciferase, 24 h; % of positive control, neutral wells = 0; actives 0.75% (n = 300,000);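 active = mean activation of at least 80% with every replicate also reaching 80%; inconclusive = mean reaches 80% but some replicate falls short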;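 also: 0% = neutral control wells and 100% = parthenolide positive control wells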
esBAF inh: SWI/SNF esBAF complex inhibition | mouse ES cells, Bmi1-luciferase knock-in reporter, 24 h; 100% = twice the neutral-well signal | reporter increase, % at 12.5 µM | actives 2% (n = 350,000) | AID 602393; in the data active = activation above about 40%; inconclusive = no clear call, values can overlap the other calls;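 also: 0% = median of the plate's neutral control wells and 100% = double that signal; a rise in the Bmi1 reporter signal indicates esBAF inhibition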
PglD inh: inhibitors of Campylobacter jejuni PglD acetyltransferase; inhibition, % at 12.5 µM; AID 602405; purified PglD enzyme, DTNB colorimetric CoA detection; actives 0.098% (n = 360,000); in the data active = inhibition above about 16%, passing the limit was not always enough; inconclusive = no clear call, values can overlap the other calls
UUG fidelity: alters start codon recognition fidelity in yeast | S. cerevisiae UUG-firefly luciferase reporter, luminescence/redox ratio | activity score, % at 18.7 µM | 350,000 compounds, 0.13% hits | AID 602363;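 active = replicate mean at a twofold rise or more, about +100% in these data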;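 note: firefly luciferase made from a UUG start codon reports start codon fidelity; reporter light over untreated wells divided by growth signal over untreated wells; some hits fall short of that in this replicate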
miR-122 sensor: miR-122 inhibition in Huh7 cells; Huh7 miR-122 Renilla luciferase sensor, 48 h; neutral wells = 0, positive control = 100; activation (reporter increase), % at 12.5 µM; actives 0.3% (n = 340,000);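 active = mean replicate activation score at least 90 and every replicate individually at or above 90; inconclusive = only one of the two criteria met; inactive = neither criterion met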;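 also: higher luciferase means less miR-122 activity so hits act as miR-122 inhibitors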
Numbers without * were called inactive; ? = inconclusive; · = no result; [ ] = remark or other dose. Most compounds without a hit are left out; they make up all but 2.8% or so of the library.

Wnt act	esBAF inh	UUG fidelity	canonical_smiles	PglD inh	MITF TRPM1 HTS	miR-122 sensor
·	0.8	-13.7	O=C(N[C@@H]1C=C[C@H](CC(=O)N2CCOCC2)O[C@H]1CO)c1ccc2c(c1)OCO2	-1.9	·	·
3.1	39.7	-24.9	COc1cccc(NC(=O)c2ccc(CN3CCOCC3)cc2)c1	-1.4	·	-1.7
26.4	95.8*	-4.5	Nc1c(C(=O)Nc2ccc3c(c2)OCCO3)nnn1Cc1ccc(F)cc1	-4.4	116.4*	62.0
-1.6	12.9	-20.0	COc1ccc(Br)cc1Cn1nnc(C(=O)Nc2ccc3c(c2)OCCO3)c1N	5.3	-1.0	·
·	55.8*	-15.4	O=C(Nc1ccc2c(c1)OCCO2)c1ccc(CN2CCOCC2)cc1	-2.0	51.1	-5.5
47.2*	55.4*	·	Nc1c(C(=O)Nc2ccc3c(c2)OCCO3)nnn1Cc1cccc(Cl)c1	·	100.9*	·
25.2	74.2*	-15.2	Nc1c(C(=O)Nc2ccc3c(c2)OCCO3)nnn1Cc1ccccc1Cl	6.3	145.2*	·
·	5.5	·	CCNC(=O)[C@@H]1[C@@H](CO)[C@@H]2Cn3c(ccc(-c4cccc(F)c4)c3=O)[C@@H]2N1Cc1cc(F)ccc1F	0.0	·	·
·	-1.8	4.8	COCC(=O)Nc1ccc2c(c1)C(=O)N(C)C[C@@H](OC)[C@H](C)CN(C(=O)c1cnccn1)[C@H](C)CO2	-2.2	·	-1.6[16.7 µM]
·	-10.0	-6.1	COc1cccc(-c2cnc3c(c2)C(=O)N([C@@H](C)CO)C[C@@H](C)[C@@H](CN(C)C(=O)CN(C)C)O3)c1	11.2	·	2.6[16.7 µM]
52.7*	·	·	Oc1c(C(Nc2cccc(C(F)(F)F)c2)c2ccncc2)ccc2cccnc12 (stereo unspecified)	·	-64.8	·
·	1.4	5.4	C[C@H](CO)N1C[C@H](C)[C@H](CN(C)C(=O)c2ccc(F)cc2)Oc2ncc(Br)cc2C1=O	1.5	·	15.5[16.7 µM]
·	-4.0	8.8	Cc1noc(C)c1S(=O)(=O)Nc1ccc2c(c1)C(=O)N([C@H](C)CO)C[C@H](C)[C@@H](CN(C)S(C)(=O)=O)OCCCC[C@H](C)O2	0.0	·	7.5[16.7 µM]
·	9.0	-26.1	Cc1nn2c(N)c(C#N)cnc2c1-c1ccccc1	5.6	45.8	0.6
-0.7	50.1*	-5.9	Cc1nn2c(N)c(-c3ccccc3)cnc2c1-c1ccccc1	0.5	·	-10.3
4.2	3.4	-6.2	Cc1nn2c(-c3ccc(F)cc3)ccnc2c1Cl	-5.4	-1.7	0.5
9.7	57.0*	-9.9	Cc1nn2c(-c3ccc(Cl)cc3)ccnc2c1-c1ccccc1	-3.6	·	1.2
·	-2.3	3.3	CCC(=O)N1C[C@H](C)[C@H](OC)CN(C)C(=O)c2cc(NC(=O)c3cnccn3)ccc2OC[C@H]1C	1.7	·	-5.5[16.7 µM]
·	2.0	-1.7	CO[C@H]1CN(C)C(=O)c2ccc(NC(=O)C3CC3)cc2OC[C@@H](C)N(C(=O)NC(C)C)C[C@H]1C	1.9	·	·
·	0.0	47.6	COc1ccc(S(=O)(=O)Nc2ccc3c(c2)C(=O)N([C@@H](C)CO)C[C@@H](C)[C@@H](CN(C)CC2CCCCC2)OCCCC[C@@H](C)O3)cc1	4.3	·	-5.7[16.7 µM]
17.3	43.9*	-9.4	O=c1[nH]c(/C=C/c2ccccn2)nc2ccccc12	8.0	49.8	-19.1
2.3	·	·	O=c1[nH]c(/C=C/c2cccc3ccccc23)nc2ccccc12	·	28.6	·
44.3*	44.9*	-22.1	O=c1[nH]c(COc2ccc(Br)cc2Cl)nc2ccccc12	-2.6	?	-10.3
16.3	·	·	CN(C)c1ccc(/C=C/c2nc3ccccc3c(=O)[nH]2)cc1	·	-50.4	·
45.3*	-1.7	-13.3	O=c1[nH]c(/C=C/c2ccc(Br)cc2)nc2ccccc12	-7.2	71.1	·
17.1	79.5*	-17.3	O=C(Nc1cccc(/C=C/c2nc3ccccc3c(=O)[nH]2)c1)c1ccccc1Cl	-0.9	64.6	-2.3
-0.6	-6.9	-19.9	O=C(O)c1ccc(-n2c(/C=C/c3cccc([N+](=O)[O-])c3)nc3ccccc3c2=O)cc1	-1.1	-2.2	-3.0
1.9	91.6*	5.3	O=C(O)c1ccc(-n2ncc3c2/C(=C\c2cccc([N+](=O)[O-])c2)CC3)cc1	-6.6	113.0*	13.0
?	·	·	O=C(O)c1ccc(-n2ncc3c2/C(=C/c2cccc([N+](=O)[O-])c2)CC3)cc1	·	138.3*	·
·	41.9*	-9.9	Cc1ccc(C(=O)c2coc3c2C(=O)C(=O)c2ccccc2-3)cc1	-6.7	71.3	-1.0
·	-4.1	·	CCCNC(=O)C[C@@H]1CC[C@@H]2[C@H](COC[C@H](O)CN2C(=O)CC)O1	5.1	·	2.2[16.7 µM]
·	64.0*	·	Cc1ccc(OCc2nc(-c3ccccc3)no2)c(C)c1	·	79.7	3.4
-5.2	9.5	-8.4	Cc1cc(C)c(C)c(OCc2nc(-c3cccnc3)no2)c1	-3.5	·	-0.8
38.5*	·	·	O=C(CC(c1ccccc1O)N1CCCCC1)N1CCCCC1 (stereo unspecified)	·	·	·
-1.3	7.2	-38.0	CC1CC(C)CN(C(=O)COC(=O)c2c[nH]c3ccccc23)C1 (stereo unspecified)	-6.5	-20.3	·
27.3	35.1	-15.7	O=C(OCC(=O)N1CCCCC1)c1c[nH]c2ccccc12	1.8	94.0*	1.2
19.3	122.8*	-15.1	O=C(COC(=O)c1n[nH]c2ccccc12)Nc1ccccc1F	2.3	9.7	0.4
8.0	57.0*	-9.7	CC1CCN(C(=O)COC(=O)c2c[nH]c3ccccc23)CC1	-2.3	63.0	·
·	47.8*	-16.1	O=C(COC(=O)C1CC1)c1c[nH]c2ccccc12	1.3	63.5	0.0
·	8.1	9.8	COc1ccc(NC(=O)N2CC[C@@H]3[C@@H](CO)N(C)c4ccc(-c5cccc(C(=O)N(C)C)c5)cc4[C@@H]32)cc1	-6.3	·	6.3[16.7 µM]

An excerpt of these results, with two lines to a compound:
Value order – Wnt act | esBAF inh | UUG fidelity | PglD inh | MITF TRPM1 HTS | miR-122 sensor
> CC1CC(C)CN(C(=O)COC(=O)c2c[nH]c3ccccc23)C1 (stereo unspecified)
  -1.3 | 7.2 | -38.0 | -6.5 | -20.3 | ·
> O=C(OCC(=O)N1CCCCC1)c1c[nH]c2ccccc12
  27.3 | 35.1 | -15.7 | 1.8 | 94.0* | 1.2
> O=C(COC(=O)c1n[nH]c2ccccc12)Nc1ccccc1F
  19.3 | 122.8* | -15.1 | 2.3 | 9.7 | 0.4
> Cc1cc(C)c(C)c(OCc2nc(-c3cccnc3)no2)c1
  -5.2 | 9.5 | -8.4 | -3.5 | · | -0.8
> O=C(COC(=O)C1CC1)c1c[nH]c2ccccc12
  · | 47.8* | -16.1 | 1.3 | 63.5 | 0.0
> O=C(CC(c1ccccc1O)N1CCCCC1)N1CCCCC1 (stereo unspecified)
  38.5* | · | · | · | · | ·

Later entries.
Wnt act	esBAF inh	UUG fidelity	canonical_smiles	PglD inh	MITF TRPM1 HTS	miR-122 sensor
·	69.9*	-19.4	CC1CCCN(C(=O)COC(=O)c2n[nH]c3ccccc23)C1 (stereo unspecified)	5.3	?	6.3
3.4	4.3	-17.8	O=C(CCc1c[nH]c2ccccc12)N1CCCC1	4.9	13.3	·
-1.0	60.4*	13.4	O=C(CCCc1c[nH]c2ccccc12)N1CCCCCC1	-2.5	29.0	3.5
·	9.9	-13.5	COC(=O)C1CCN(C(=O)COC(=O)c2n[nH]c3ccccc23)CC1	-0.7	·	-2.3
-1.7	44.5*	-3.6	O=c1[nH]c(SCc2nc3c(cnn3-c3ccccc3)c(=O)[nH]2)nc2ccccc12	-3.7	19.9	-0.6
·	0.1	-1.8	C[C@H]1CN([C@@H](C)CO)C(=O)c2cccc(NC(=O)Nc3ccc(F)cc3)c2O[C@H]1CN(C)S(C)(=O)=O	-0.6	·	1.9[16.7 µM]
3.1	·	-2.7	CCOC(=O)C1=C(C)Nc2nc3ccccc3n2C1c1ccc(O)cc1 (stereo unspecified)	2.7	-13.6	·
44.2*	·	-26.8	COC(=O)C1=C(C)Nc2nc3ccccc3n2C1c1cc(OC)c(OC)c(OC)c1 (stereo unspecified)	0.3	·	-0.4
39.6*	54.1*	-7.7	COc1ccc([C@@H]2CC(=O)c3c(O)cc(O)cc3O2)cc1O	-0.4	46.5	-1.2
